Assay results reported in patent US20260306514A1, “ORAL PHARMACEUTICAL FORMULATIONS CONTAINING 4-((2-HYDROXY-3-METHOXYBENZYL)AMINO) BENZENESULFONAMIDE DERIVATIVES” (Cadrenal Therapeutics, Inc., priority 2022, published 2026).

Assay: Rat PK of Compound 1, IV and oral solution (Table 2)
Set-up: species or system rats
Settings: in vivo, 30 mg/Kg
Source text: These compounds have low solubility in water. Below is a comparison of oral bioavailability of Compound 1 Suspension (Table 1) versus Solution (Table 2).
The intravenous formulation uses cyclodextrin (CD) to increase solubility. However, a drug loading of <10% is not suitable for oral formulation. The inventors explored a new approach to oral formulation without guidance from the art including lipid solubility screening in various non-aqueous vehicles, self micro-emulsifying systems with oils, surfactants, and co-surfactants, amorphous solid dispersions via hot melt and spray drying, micronization, and in silico screen of supercritical fluid nanoparticle engineering. […] The pharmaceutical acceptable carrier can be a polymer.

Work on `COc1cccc(CNc2ccc(S(=O)(=O)Nc3nc4ccccc4s3)cc2)c1O` [Compound 1, N-(benzo[d]thiazol-2-yl)-4-((2-hydroxy-3-methoxybenzyl)amino)benzenesulfonamide] yielded a Tmax of 15 min.
